Results from US11319337B2, “3-desoxy derivative and pharmaceutical compositions thereof” (Intercept Pharmaceuticals, Inc., priority 2016, dated 2022).

Sequences of proteins named here, by UniProt entry; tags and fusion partners are left off.
UniProt P05181, whole entry: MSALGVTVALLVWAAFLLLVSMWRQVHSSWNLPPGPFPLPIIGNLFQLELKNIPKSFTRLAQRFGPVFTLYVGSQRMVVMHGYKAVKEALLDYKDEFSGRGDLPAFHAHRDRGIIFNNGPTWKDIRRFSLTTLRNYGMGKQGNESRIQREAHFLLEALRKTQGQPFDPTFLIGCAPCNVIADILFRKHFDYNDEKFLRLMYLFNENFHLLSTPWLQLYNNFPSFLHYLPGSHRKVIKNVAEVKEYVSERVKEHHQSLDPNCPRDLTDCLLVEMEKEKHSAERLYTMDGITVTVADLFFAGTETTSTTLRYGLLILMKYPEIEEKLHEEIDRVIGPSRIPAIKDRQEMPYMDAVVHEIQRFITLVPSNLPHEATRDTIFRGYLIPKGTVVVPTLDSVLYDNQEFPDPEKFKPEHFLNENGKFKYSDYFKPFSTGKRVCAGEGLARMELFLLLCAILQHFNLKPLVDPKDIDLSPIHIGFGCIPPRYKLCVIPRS

Target: CYP2E1 (Homo sapiens, UniProt P05181)

## CCN(CC)C(=S)S
  IC50: 400 nM
